Reference: ChEMBL document CHEMBL1139847, “Carbonic anhydrase inhibitors. DNA cloning, characterization, and inhibition studies of the human secretory isoform VI, a new target for sulfonamide and sulfamate inhibitors” (J Med Chem, 2007)

Biological target: Carbonic anhydrase 9 (Homo sapiens, UniProt Q16790)

`NS(=O)(=O)c1nnc(-c2ccccc2Cl)s1` gave a Ki of 30 nM.
